The chains behind the UniProt entries cited, without tags or fusion partners. Residues count along the entry.
ADP-ribosylation factor GTPase-activating protein 1 (Rattus norvegicus), Q62848, UniProt Q62848, whole entry, looked up: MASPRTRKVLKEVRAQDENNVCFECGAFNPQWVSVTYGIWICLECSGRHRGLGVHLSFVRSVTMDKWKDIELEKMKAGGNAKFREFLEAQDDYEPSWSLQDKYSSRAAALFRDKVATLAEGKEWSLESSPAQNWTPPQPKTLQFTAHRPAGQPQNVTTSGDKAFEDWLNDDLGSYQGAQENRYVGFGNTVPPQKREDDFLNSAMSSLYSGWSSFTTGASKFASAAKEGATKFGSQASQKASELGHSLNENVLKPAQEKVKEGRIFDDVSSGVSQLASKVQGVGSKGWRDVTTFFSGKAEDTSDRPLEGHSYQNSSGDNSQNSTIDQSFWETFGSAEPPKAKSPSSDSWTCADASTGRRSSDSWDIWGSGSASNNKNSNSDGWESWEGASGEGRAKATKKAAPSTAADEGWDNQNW
ADP-ribosylation factor GTPase-activating protein 1 (Rattus norvegicus), Q62848, UniProt Q62848, 1-136 limits assumed: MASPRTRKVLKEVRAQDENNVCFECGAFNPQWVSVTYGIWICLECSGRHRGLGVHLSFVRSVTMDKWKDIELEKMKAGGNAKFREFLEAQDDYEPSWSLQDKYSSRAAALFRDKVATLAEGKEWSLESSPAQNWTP
Melanocortin receptor 4 (Homo sapiens), P32245, UniProt P32245, whole entry, looked up: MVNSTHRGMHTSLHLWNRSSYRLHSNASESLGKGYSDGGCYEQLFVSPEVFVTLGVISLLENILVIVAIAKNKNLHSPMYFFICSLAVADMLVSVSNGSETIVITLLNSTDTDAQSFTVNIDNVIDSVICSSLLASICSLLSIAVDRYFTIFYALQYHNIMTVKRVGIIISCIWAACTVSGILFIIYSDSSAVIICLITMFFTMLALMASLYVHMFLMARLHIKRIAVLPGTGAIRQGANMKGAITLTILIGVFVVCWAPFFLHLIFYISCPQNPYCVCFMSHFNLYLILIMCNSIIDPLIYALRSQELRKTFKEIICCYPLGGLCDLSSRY

# Source: PubChem
# ASAP1 inh – inhibitors of human ASAP1 ArfGAP activity, primary screen, biochemical, fluorescence polarization; AID 624377, 2012; inhibition, % at 16.5 µM; actives 0.19% (n = 360,000); Arf-GAP with SH3 domain, ANK repeat and PH domain-containing protein 1 (Homo sapiens), …; ASAP1-stimulated ARF1 GTP hydrolysis, GDP FP detection; in the data active means inhibition above about 25%;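 further: 0% = vehicle with enzyme and substrate and 100% = no enzyme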
# Yeast UUG start – alters start codon recognition fidelity in yeast. S. cerevisiae UUG-firefly luciferase reporter, luminescence/redox ratio. AID 602363. activity score, % at 18.7 µM. hit rate 0.13% among 350,000;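 active = replicate mean at a twofold rise or more, about +100% in these data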;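 note: firefly luciferase made from a UUG start codon reports start codon fidelity; reporter light over untreated wells divided by growth signal over untreated wells; some hits fall short of that in this replicate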
# ARFGAP1 inh – inhibitors of rat ARFGAP1 GAP activity, primary screen, biochemical, fluorescence polarization, GDP tracer; Arfgap1-stimulated ARF1 GTP hydrolysis, GDP FP detection; inhibition, % at 16.5 µM; AID 651572, 2012; actives 0.26% (n = 360,000); ADP-ribosylation factor GTPase-activating protein 1 (Rattus norvegicus), Q62848;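 active means inhibition above a per-plate limit, mean inhibition of low control wells plus 3 SD, cut at about 25% in these data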;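 further: 0% = DMSO wells with enzyme and 100% = wells lacking Arfgap1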
#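 material = rat Arfgap1 catalytic domain, aa 1-136 | also added = human ARF1(Δ1-17)-GTP substrate | compound dosing = one concentration, 16.5 µM, DMSO 1.26% | times = GTP hydrolysis reaction 2 h at 25 °C | measured by = FP, GDP Alexa 633 tracer displaced from anti-GDP antibody, 620/688 nm | evaluation = percent inhibition of Arfgap1-stimulated GTP hydrolysis | replication = single well per compound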
# MC4R barr agon – MC4R agonists recruiting beta-arrestin, primary screen, cell-based, luminescence, agonist arm of biased-ligand search. activation, % at 8.9 µM. U2OS MC4R beta-arrestin complementation; percent of melanotan II response, DMSO zero. actives 0.98% (n = 360,000). Melanocortin receptor 4 (Homo sapiens), P32245. AID 540308, 2011;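 active means activation above a per-plate cutoff, the mean activation of sample wells on that plate plus 3 SD, cut at about 8% in these data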
# MC4R antag cAMP – MC4R antagonists of cAMP signaling, primary screen, cell-based, TR-FRET, antagonist arm of biased-ligand search; Melanocortin receptor 4 (Homo sapiens), P32245; actives 0.48% (n = 360,000); MC4R-expressing cells, MTII-stimulated cAMP, LANCE TR-FRET; AID 540295, 2011; inhibition, % at 6.5 µM;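 active means inhibition above its plate's cutoff, the mean of tested wells on that plate plus 3 SD, cut at about 29% in these data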;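 further: 0% = Melanotan II alone and 100% = Melanotan II plus saturating MCL0020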
#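 Material: human MC4R-expressing U2OS cells. Probe or stimulus: Melanotan II challenge. Dosing: 6.5 µM single dose. Times: 30-min compound, 1-h challenge, 1-h detection, room temperature. Technique: TR-FRET with Eu-cAMP and labeled anti-cAMP, 671 nm. Replication: singlicate.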
# NRP1-CendR mod – modulators of CendR peptide binding to NRP-1, primary screen, biochemical, fluorescence polarization, uHTS; FAM-RPARPAR peptide binding to NRP-1; inhibition, % at 25 µM; actives 0.85% (n = 360,000);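 active means inhibition or corrected inhibition above about 18%, plus a signal ratio from 0.5 to 1.5, limit read from the data, passing the limit was not always enough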
# ARFGAP1 inh conf – ARFGAP1 inhibitor hit confirmation, biochemical, fluorescence polarization, triplicate | actives 30% (n = 890) | shares compounds with ARFGAP1 inh | ARFGAP1-stimulated ARF1 GTP hydrolysis, GDP tracer FP | inhibition, % at 16.5 µM | AID 651608, 2012;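 active means average inhibition over triplicates above the hit cutoff set in the earlier primary screen, cut at about 25% in these data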;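 further: 0% = Arfgap1 plus ARF1-GTP with DMSO and 100% = wells lacking Arfgap1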
# The depositor's hits bear a star; / = no result given. A selection: hits, their analogues and other compounds. The true share with any hit is near 2.3%.
# Keys – A = ASAP1 inh; B = Yeast UUG start; C = ARFGAP1 inh; D = MC4R barr agon; E = MC4R antag cAMP; F = NRP1-CendR mod; G = ARFGAP1 inh conf
1. COc1ccc(NC(C)=O)c([N+](=O)[O-])c1[N+](=O)[O-]
  A = 9; B = /; C = 6; D = -3; E = 13; F = 1; G = /
2. CC(=O)Nc1ccc(N2C(=O)CC(N3CCSCC3)C2=O)cc1 (stereo unspecified)
  A = -1; B = /; C = 25*; D = -2; E = -5; F = -7; G = 2
3. O=C1CC(N2CCSCC2)C(=O)N1c1ccc(F)cc1 (stereo unspecified)
  A = 5; B = 6; C = 1; D = 1; E = 5; F = 14; G = /
4. CCCc1ccc(Oc2cn[nH]c2-c2ccc(O)cc2O)cc1
  A = 15; B = -17; C = 30*; D = 5; E = -1; F = -1; G = 18
5. COc1cc(/C=C(\C#N)c2ccccn2)ccc1OCC(=O)Nc1c(Cl)cccc1Cl
  A = 10; B = -2; C = 29*; D = -2; E = 5; F = -3; G = 31*
6. CN(C(=O)c1ccc(NC(=O)C2CCN(C(=O)OC(C)(C)C)CC2)cc1)C1CC1
  A = 11; B = 3; C = 25*; D = -2; E = 2; F = 3; G = 1
7. CC(C)(C)OC(=O)N1CCC(C(=O)Nc2ccc(C(=O)N3CCCC3)cc2)CC1
  A = 7; B = 4; C = -3; D = 1; E = 7; F = -8; G = /
8. Cc1cc(C)nc(Nc2nc3ccccc3s2)n1
  A = -4; B = /; C = -13; D = 0; E = 4; F = 1; G = /
9. CC(=O)c1c(C)nc(Nc2nc3ccccc3s2)nc1C
  A = -10; B = -7; C = 25*; D = 1; E = 0; F = 0; G = -1
10. O=C(C[C@@H]1CC[C@@H]2[C@H](COC[C@H](O)CN2C(=O)c2ccc(F)cc2)O1)NC1Cc2ccccc2C1
  A = /; B = 2; C = /; D = /; E = /; F = /; G = /
11. O=C(NCc1nc2ccccc2[nH]1)C1=C[C@H](c2ccc(Br)cc2)C[C@H](OCCCCO)O1
  A = /; B = -15; C = /; D = /; E = /; F = /; G = /
12. COc1ccc(N2CC(C(=O)Nc3ccc(S(=O)(=O)Nc4nccs4)cc3)CC2=O)c(OC)c1 (stereo unspecified)
  A = 2; B = 5; C = 25*; D = -2; E = 20; F = -9; G = 0
13. Cc1ccc(N2CC(C(=O)Nc3ccc(S(=O)(=O)Nc4nccs4)cc3)CC2=O)cc1C (stereo unspecified)
  A = 6; B = -8; C = -1; D = 0; E = 3; F = -11; G = /
14. CC(=O)c1ccc(NC(=O)C(C)OC(=O)C2CCN(c3ccc(C(F)(F)F)cn3)CC2)cc1 (stereo unspecified)
  A = 2; B = 7; C = 6; D = 0; E = 11; F = 2; G = /
15. CC(OC(=O)C1CCN(c2ccc(C(F)(F)F)cn2)CC1)C(=O)Nc1cccc([N+](=O)[O-])c1 (stereo unspecified)
  A = -4; B = -4; C = 27*; D = 5; E = 8; F = -7; G = 9
16. CC(C)(C)CC(C)(C)NC(=O)/C=C/C(=O)O
  A = -16; B = -26; C = 25*; D = -1; E = 13; F = -3; G = -2
17. CCCNC(=O)/C=C/C(=O)O
  A = -1; B = /; C = 4; D = -5; E = 1; F = 11; G = /
18. COc1ccc(-c2ccc([C@H]3[C@@H](CO)N4CCCCN(S(=O)(=O)c5cccs5)C[C@@H]34)cc2)cc1
  A = /; B = 4; C = /; D = /; E = /; F = /; G = /
19. CCn1c2ccccc2c2cc(NC(=O)CSc3nnc(-c4cccc(OC)c4)n3N)ccc21
  A = 1; B = -14; C = 31*; D = -2; E = 6; F = 3; G = 26*
20. C[C@H]1CN([C@@H](C)CO)C(=O)Cc2cc(NC(=O)CCCN(C)C)ccc2O[C@H]1CN(C)S(=O)(=O)c1ccccc1
  A = /; B = -6; C = /; D = /; E = /; F = /; G = /
21. COc1cccc(Nc2nc(-c3sc(NC(=O)CC(C)C)nc3C)cs2)c1
  A = 2; B = -12; C = 15; D = -1; E = 15; F = -17; G = /
22. COc1cccc(Nc2nc(-c3sc(NC(=O)c4ccccc4)nc3C)cs2)c1
  A = 12; B = 0; C = 26*; D = -1; E = 11; F = -16; G = 15
23. CCOC(=O)Cn1c(=O)cc(C)c2cccc(C)c21
  A = 6; B = /; C = 30*; D = 3; E = 18; F = -4; G = 5
24. CCC(=O)N(C)C[C@@H]1Oc2ncc(C#CC(C)(C)O)cc2C(=O)N([C@H](C)CO)C[C@H]1C
  A = /; B = 2; C = /; D = /; E = /; F = /; G = /
25. O=C(CN(C(=O)c1csnn1)c1ccccc1F)NCc1ccc2c(c1)OCO2
  A = 4; B = -5; C = 25*; D = 1; E = 17; F = -3; G = 4

# Reprinted at random: three compounds from above.
# Keys – A = ASAP1 inh; B = Yeast UUG start; C = ARFGAP1 inh; D = MC4R barr agon; E = MC4R antag cAMP; F = NRP1-CendR mod; G = ARFGAP1 inh conf
10. O=C(C[C@@H]1CC[C@@H]2[C@H](COC[C@H](O)CN2C(=O)c2ccc(F)cc2)O1)NC1Cc2ccccc2C1
  A = /; B = 2; C = /; D = /; E = /; F = /; G = /
15. CC(OC(=O)C1CCN(c2ccc(C(F)(F)F)cn2)CC1)C(=O)Nc1cccc([N+](=O)[O-])c1 (stereo unspecified)
  A = -4; B = -4; C = 27*; D = 5; E = 8; F = -7; G = 9
8. Cc1cc(C)nc(Nc2nc3ccccc3s2)n1
  A = -4; B = /; C = -13; D = 0; E = 4; F = 1; G = /

# Continuation:
# Keys – A = ASAP1 inh; B = Yeast UUG start; C = ARFGAP1 inh; D = MC4R barr agon; E = MC4R antag cAMP; F = NRP1-CendR mod; G = ARFGAP1 inh conf
26. COc1ccc(-n2c(=O)c3c4c(sc3n(CC(=O)Nc3cc(C)[nH]n3)c2=O)CCCC4)c(OC)c1
  A = 10; B = -15; C = 33*; D = 1; E = 2; F = 8; G = 33*
27. CCC(=O)N(C)C[C@H]1Oc2cc(C#CCOC)ccc2S(=O)(=O)N([C@@H](C)CO)C[C@@H]1C
  A = /; B = 6; C = /; D = /; E = /; F = /; G = /
28. C[C@@H]1CN([C@H](C)CO)S(=O)(=O)c2ccc(-c3cccc(F)c3)cc2O[C@@H]1CN(C)C(=O)C1CC1
  A = /; B = 11; C = /; D = /; E = /; F = /; G = /
29. Cc1nc(NCc2ccc(S(N)(=O)=O)cc2)c2c(C)c(C)sc2n1
  A = 22; B = -17; C = 44*; D = -1; E = -2; F = 4; G = 32*
30. CCOC(=O)c1sc2nc(C)nc(NCCc3ccc(S(N)(=O)=O)cc3)c2c1C
  A = -2; B = 5; C = -3; D = 4; E = 23; F = 13; G = /
31. Cc1noc(C)c1NC(=O)Nc1cccc2c1O[C@H](CN(C)S(=O)(=O)c1cn(C)cn1)[C@H](C)CN([C@@H](C)CO)C2=O
  A = /; B = 8; C = /; D = /; E = /; F = /; G = /
32. COc1cccc2c1SCc1ccccc1C2CC(N)=O (stereo unspecified)
  A = 21; B = -8; C = 31*; D = 0; E = 10; F = -5; G = -4
33. COc1ccccc1CC(=O)NC1CCCc2ccccc21 (stereo unspecified)
  A = 2; B = /; C = -6; D = 1; E = 7; F = 2; G = /
34. CCCN1C[C@H](C)[C@H](OC)CN(C)C(=O)c2cc(NC(=O)C3CCOCC3)ccc2OC[C@H]1C
  A = /; B = 4; C = /; D = /; E = /; F = /; G = /
35. C[C@H]1CN([C@@H](C)CO)S(=O)(=O)c2ccc(C#CC(C)(C)O)cc2O[C@@H]1CN(C)Cc1ccc(-c2ccccc2)cc1
  A = /; B = -9; C = /; D = /; E = /; F = /; G = /
36. C=C(C)COc1ccc(-c2[nH]ncc2-c2ccc(OC)cc2)c(O)c1
  A = -3; B = /; C = 26*; D = 4; E = 5; F = 6; G = 7
